The assay deals with Plasminogen (Homo sapiens, UniProt P00747). The assay can be described thus: Competitive inhibition of esterase activity of human plasmin assessed as assessed as decrease in p-nitrophenol production using N-Z-L-Tyr-ONp as substrate by spectrophotometric analysis.

Amino acid sequences for entries named in this document (tags omitted). Residues count along the entry.
UniProt P00747, 97-580 limits assumed: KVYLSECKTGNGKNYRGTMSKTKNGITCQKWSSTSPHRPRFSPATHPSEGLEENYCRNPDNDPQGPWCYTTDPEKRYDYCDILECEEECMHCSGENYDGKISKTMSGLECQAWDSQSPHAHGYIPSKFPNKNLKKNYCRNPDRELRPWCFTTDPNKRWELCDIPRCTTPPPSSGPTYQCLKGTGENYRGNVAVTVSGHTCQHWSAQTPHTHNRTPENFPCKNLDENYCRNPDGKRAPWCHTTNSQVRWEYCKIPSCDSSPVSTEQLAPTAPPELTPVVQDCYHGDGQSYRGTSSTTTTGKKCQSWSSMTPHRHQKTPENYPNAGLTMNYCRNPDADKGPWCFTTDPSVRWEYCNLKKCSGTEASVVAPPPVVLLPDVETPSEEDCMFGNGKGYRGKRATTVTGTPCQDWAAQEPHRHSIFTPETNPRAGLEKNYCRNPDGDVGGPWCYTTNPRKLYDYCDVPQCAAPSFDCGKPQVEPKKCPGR
UniProt P00747, 581-810 limits assumed: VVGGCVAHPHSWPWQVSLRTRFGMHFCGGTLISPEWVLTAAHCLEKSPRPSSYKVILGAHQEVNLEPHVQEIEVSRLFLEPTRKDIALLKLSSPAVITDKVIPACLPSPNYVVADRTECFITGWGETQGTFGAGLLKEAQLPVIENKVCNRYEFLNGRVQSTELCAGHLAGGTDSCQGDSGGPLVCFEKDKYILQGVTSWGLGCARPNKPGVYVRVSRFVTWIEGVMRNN

“And” between values parts separate entries of the source, which are not always exact repeats. Equal entries are not always repeated.

For `N=C(N)c1ccccc1` [Benzamidine (Protonated)], the Ki (in general, the dissociation constant of the complex between target and ligand, obtained from inhibition or displacement) was 2510 µM and 316 µM and 500 µM and 398 µM.

The values above are taken from BindingDB's records for doi:10.1021/jm00210a006 (1979).
